Literature values, collected in patent US20100284984A1, “ADENOSINE AND ITS MIMETICS. MODULATORS, TRANSPORT INHIBITORS, AND RECEPTOR AGONISTS AS A THERAPEUTIC TOOL TO REPLACE OR IMPROVE THE EFFICACY OF DEEP BRAIN STIMULATION” (University of Rochester, priority 2007, published 2010).

Sequences of proteins named here, by UniProt entry; tags and fusion partners are left off.
UniProt P55263, whole entry: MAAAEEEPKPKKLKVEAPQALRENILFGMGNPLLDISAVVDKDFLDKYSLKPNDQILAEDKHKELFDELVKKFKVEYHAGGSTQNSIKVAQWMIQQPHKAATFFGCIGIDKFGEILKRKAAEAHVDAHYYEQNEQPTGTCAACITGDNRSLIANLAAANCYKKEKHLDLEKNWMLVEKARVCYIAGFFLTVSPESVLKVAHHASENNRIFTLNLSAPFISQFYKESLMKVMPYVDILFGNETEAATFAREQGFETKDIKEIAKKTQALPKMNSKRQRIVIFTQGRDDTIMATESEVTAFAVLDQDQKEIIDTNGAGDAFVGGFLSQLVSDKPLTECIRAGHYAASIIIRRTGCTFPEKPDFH

Biological target: adenosine kinase (Homo sapiens, UniProt P55263)
Settings: cited from earlier work

For `NC[C@H]1O[C@@H](n2nc(Br)c3c(N)ncnc32)[C@H](O)[C@@H]1O`, the IC50 is given as 206 nM.
